# Values of other authors as cited in patent US20160038498A1, “METHODS FOR THE TREATMENT OF CANCER” (The Translational Genomics Research Institute, priority 2013, published 2016).
# Settings: single intravenous injection of 50-70 mg of BI-2536; cited from earlier work
structure (smiles),measurement,value
CC[C@@H]1C(=O)N(C)c2cnc(Nc3ccc(C(=O)NC4CCN(C)CC4)cc3OC)nc2N1C1CCCC1 [BI-2536],concentrations achieved clinically,31.2 to 55.2 µM
